Test results as given in patent US7799540B2, “Method of producing lycopene through the fermentation of selected strains of Blackeslea trispora, formulations and uses of the lycopene thus obtained” (Vitatene, S.A., priority 2001, dated 2010).

Test system: B. trispora spores
Test: Mutation of B. trispora spores with mutagenic agents: mortality rate
Format: cell-based, Blakeslea trispora
Settings: 10^6 spores/ml, 250 μg/ml of NTG, 0.1 M sodium citrate buffer pH 5.0, room temperature, 30 minutes

Structure (SMILES): CN(N=O)C(=N)N[N+](=O)[O-]
- mortality rates: around 95%
